The values below come from ChEMBL document CHEMBL1128362, “Structure-activity relationships of 9-alkyladenine and ribose-modified adenosine derivatives at rat A3 adenosine receptors” (J Med Chem, 1995).

Chains of the proteins cited; added tags and fusions are not shown.
UniProt P25099, whole entry, looked up: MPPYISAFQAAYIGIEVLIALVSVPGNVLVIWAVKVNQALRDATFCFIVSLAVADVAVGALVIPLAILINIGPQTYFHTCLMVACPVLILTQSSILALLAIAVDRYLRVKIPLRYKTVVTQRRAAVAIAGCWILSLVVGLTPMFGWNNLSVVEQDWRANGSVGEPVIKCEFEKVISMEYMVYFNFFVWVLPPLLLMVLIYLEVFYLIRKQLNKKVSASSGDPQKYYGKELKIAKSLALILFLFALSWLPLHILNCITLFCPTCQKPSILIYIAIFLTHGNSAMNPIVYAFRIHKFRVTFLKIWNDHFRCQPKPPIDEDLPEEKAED
UniProt P28647, whole entry, looked up: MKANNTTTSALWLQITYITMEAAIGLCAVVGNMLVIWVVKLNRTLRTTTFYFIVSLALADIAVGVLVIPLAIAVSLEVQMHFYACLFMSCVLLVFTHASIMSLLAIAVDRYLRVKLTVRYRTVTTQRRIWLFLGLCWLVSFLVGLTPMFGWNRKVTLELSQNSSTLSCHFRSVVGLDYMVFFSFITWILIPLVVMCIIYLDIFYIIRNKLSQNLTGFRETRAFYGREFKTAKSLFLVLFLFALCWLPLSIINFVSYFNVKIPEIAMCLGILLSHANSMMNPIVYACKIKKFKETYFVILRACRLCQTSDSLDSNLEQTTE
UniProt P30543, whole entry, looked up: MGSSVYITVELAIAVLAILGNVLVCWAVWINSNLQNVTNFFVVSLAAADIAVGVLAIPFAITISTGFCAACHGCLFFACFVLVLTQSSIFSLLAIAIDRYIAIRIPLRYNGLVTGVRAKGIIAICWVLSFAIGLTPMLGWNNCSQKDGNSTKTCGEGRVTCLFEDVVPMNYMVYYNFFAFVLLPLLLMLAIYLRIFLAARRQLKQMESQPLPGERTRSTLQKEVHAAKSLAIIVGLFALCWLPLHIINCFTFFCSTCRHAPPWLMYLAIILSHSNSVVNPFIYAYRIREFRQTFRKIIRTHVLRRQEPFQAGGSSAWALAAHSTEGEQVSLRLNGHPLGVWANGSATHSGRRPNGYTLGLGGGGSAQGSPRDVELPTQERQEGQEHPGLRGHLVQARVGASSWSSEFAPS

The term Ki denotes the equilibrium dissociation constant of an inhibitor or competing ligand from its target.

For assay [1], the target named is Adenosine receptors; A1 & A3 (Rattus norvegicus) (UniProt P25099+P28647). In words: Ratio of the binding affinities against rat brain A1 and A3 receptors, KiA1/KiA3.
Assay [2] deals with Adenosine receptor A2a and A3 (Rattus norvegicus) (UniProt P30543+P28647). In words: Ratio of the binding affinities against rat brain A2a and A3 receptors, KiA2a/KiA3.
In another assay the target is Adenosine receptor A2a (Rattus norvegicus, UniProt P30543). In words: Binding affinity against adenosine A2A receptor from rat brain. The method, boiled down: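 Rat A1 receptors came from cerebral cortical membranes with [3H]R-PIA, and rat A2a receptors came from striatal membranes with [3H]CGS 21680. Membranes were pretreated with adenosine deaminase (2 U/mL) for 30 min at 37 °C. Nonspecific binding was defined by 2-chloroadenosine at 10 µM (A1) and 200 µM (A2a).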

With `CNC(=O)[C@@H]1C[C@H](N)[C@H](n2cnc3c(NCc4cccc(I)c4)nc(Cl)nc32)O1`, the figures for the Ratio in assay [1] and in assay [2] were 2 and greater than 50, respectively.

Turning to `Nc1nc(Cl)nc2c1ncn2[C@@H]1O[C@H](CO)[C@@H](O)[C@@H]1O`, the Ki at Adenosine receptor A2a stood at 90 µM.
